Test results published in patent US8840891 (RSR, dated 2014).
Like-named read-outs stand apart in the source and are kept apart here. Each block holds one substance with its values, some of them ahead of it.

Legend:
Test in all cases: cell-based or functional assay
[1] = biological target: human TSHR, wild type, expressed on CHO cells (human) (UniProt P16473)
[2] = biological target: TSHR with Tyr206 mutated to Alanine expressed on CHO cells (human) (UniProt P16473)
[3] = biological target: wild type human TSHR (thyrotropin receptor) expressed on CHO cells (human) (UniProt P16473)
[4] = biological target: wild type human TSHR (thyrotropin receptor) expressed on CHO cells (human) (UniProt P16473); remark: listed apart in the source
[5] = biological target: TSHR with Phe130 mutated to Alanine expressed on CHO cells (human) (UniProt P16473)
[6] = biological target: wild type human TSHR (thyrotropin receptor) expressed on CHO cells (human) (UniProt P16473); remark: listed apart in the source
[7] = biological target: TSHR with Asp203 mutated to Alanine expressed on CHO cells (human) (UniProt P16473)
[8] = biological target: TSHR with Lys250 mutated to Alanine expressed on CHO cells (human) (UniProt P16473)
[9] = biological target: wild type human TSHR (thyrotropin receptor) expressed on CHO cells (human) (UniProt P16473); remark: listed apart in the source
[10] = biological target: TSHR with Glu61 mutated to Alanine expressed on CHO cells (human) (UniProt P16473)
[11] = biological target: wild type human TSHR (thyrotropin receptor) expressed on CHO cells (human) (UniProt P16473); remark: listed apart in the source
[12] = biological target: TSHR with Tyr185 mutated to Alanine expressed on CHO cells (human) (UniProt P16473)
[13] = biological target: wild type human TSHR (thyrotropin receptor) expressed on CHO cells (human) (UniProt P16473); remark: listed apart in the source
[14] = biological target: TSHR with His105 mutated to Alanine expressed on CHO cells (human) (UniProt P16473)
[15] = biological target: wild type human TSHR (thyrotropin receptor) expressed on CHO cells (human) (UniProt P16473); remark: listed apart in the source
[16] = biological target: TSHR with Glu251 mutated to Alanine expressed on CHO cells (human) (UniProt P16473)
[17] = biological target: wild type human TSHR (thyrotropin receptor) expressed on CHO cells (human) (UniProt P16473); remark: listed apart in the source
[18] = biological target: TSHR with Asp43 mutated to Alanine expressed on CHO cells (human) (UniProt P16473)
[19] = biological target: wild type human TSHR (thyrotropin receptor) expressed on CHO cells (human) (UniProt P16473); remark: listed apart in the source
[20] = biological target: TSHR with Glu107 mutated to Alanine expressed on CHO cells (human) (UniProt P16473)
[21] = biological target: TSHR with Arg274 mutated to Alanine expressed on CHO cells (human) (UniProt P16473)
[22] = biological target: wild type human TSHR (thyrotropin receptor) expressed on CHO cells (human) (UniProt P16473); remark: listed apart in the source
[23] = biological target: TSHR with Asp232 mutated to Alanine expressed on CHO cells (human) (UniProt P16473)
[24] = biological target: wild type human TSHR (thyrotropin receptor) expressed on CHO cells (human) (UniProt P16473); remark: listed apart in the source
[25] = biological target: TSHR with Thr257 mutated to Alanine expressed on CHO cells (human) (UniProt P16473)
[26] = biological target: wild type human TSHR (thyrotropin receptor) expressed on CHO cells (human) (UniProt P16473); remark: listed apart in the source
[27] = biological target: TSHR with Glu178 mutated to Alanine expressed on CHO cells (human) (UniProt P16473)
[28] = biological target: wild type human TSHR (thyrotropin receptor) expressed on CHO cells (human) (UniProt P16473); remark: listed apart in the source
[29] = biological target: wild type human TSHR (thyrotropin receptor) expressed on CHO cells (human) (UniProt P16473); remark: listed apart in the source
[30] = biological target: TSHR with Lys209 mutated to Alanine expressed on CHO cells (human) (UniProt P16473)

cyclic AMP; Exp 1; TSH 3 ng/mL [1]: 48.5 pmol/mL | cyclic AMP; Exp 2; TSH 3 ng/mL [1]: 34.3 pmol/mL | cyclic AMP; Exp 2; native porcine TSH 0.3 ng/mL only [1]: 40.2 pmol/mL | cyclic AMP; Exp 3; TSH 3 ng/mL [1]: 51.3 pmol/mL | cyclic AMP; Exp 3; native porcine TSH 0.3 ng/mL only [1]: 35.7 pmol/mL | cyclic AMP; Exp 4; TSH 0.3 ng/mL [1]: 46.6 pmol/mL | cyclic AMP; Exp 5; TSH 0.3 ng/mL [1]: 17.3 pmol/mL
Substance: native porcine TSH (from UniProt P01219 25-120; P01224 21-132) (ligand)

Cyclic AMP produced; TSH only (fmol/cell well) [2]: 18400 | Mutated/wild type (%); TSH only [2]: 120% | Cyclic AMP produced; TSH only (fmol/cell well) [3]: 15400 | Cyclic AMP produced; TSH only (fmol/cell well) [4]: 15900 | Cyclic AMP produced; TSH only (fmol/cell well) [5]: 16400 | Mutated/wild type (%); TSH only [5]: 103% | Cyclic AMP produced; TSH only (fmol/cell well) [6]: 11800 | Cyclic AMP produced; TSH only (fmol/cell well) [7]: 12600 | Mutated/wild type (%); TSH only [7]: 107% | Cyclic AMP produced; TSH only (fmol/cell well) [8]: 10900 | Mutated/wild type (%); TSH only [8]: 82% | Cyclic AMP produced; TSH only (fmol/cell well) [9]: 13300 | Cyclic AMP produced; TSH only (fmol/cell well) [10]: 15400 | Mutated/wild type (%); TSH only [10]: 120% | Cyclic AMP produced; TSH only (fmol/cell well) [11]: 12800 | Cyclic AMP produced; TSH only (fmol/cell well) [12]: 8300 | Mutated/wild type (%); TSH only [12]: 66% | Cyclic AMP produced; TSH only (fmol/cell well) [13]: 12600 | Cyclic AMP produced; TSH only (fmol/cell well) [14]: 18000 | Mutated/wild type (%); TSH only [14]: 126% | Cyclic AMP produced; TSH only (fmol/cell well) [15]: 14200 | Cyclic AMP produced; TSH only (fmol/cell well) [16]: 17500 | Mutated/wild type (%); TSH only [16]: 95% | Cyclic AMP produced; TSH only (fmol/cell well) [17]: 18400 | Cyclic AMP produced; TSH only (fmol/cell well) [18]: 11700 | Mutated/wild type (%); TSH only [18]: 84% | Cyclic AMP produced; Experiment 1; TSH only (fmol/cell well) [19]: 14800 | Cyclic AMP produced; Experiment 2; TSH only (fmol/cell well) [19]: 17600 | Cyclic AMP produced; TSH only (fmol/cell well) [19]: 13900 | Cyclic AMP produced; Experiment 1; TSH only (fmol/cell well) [20]: 13400 | Cyclic AMP produced; Experiment 2; TSH only (fmol/cell well) [20]: 19400 | Mutated/wild type (%); Experiment 1; TSH only [20]: 91% | Mutated/wild type (%); Experiment 2; TSH only [20]: 110% | Cyclic AMP produced; TSH only (fmol/cell well) [21]: 11400 | Mutated/wild type (%); TSH only [21]: 54% | Cyclic AMP produced; TSH only (fmol/cell well) [22]: 21300 | Cyclic AMP produced; TSH only (fmol/cell well) [23]: 14900 | Mutated/wild type (%); TSH only [23]: 95% | Cyclic AMP produced; TSH only (fmol/cell well) [24]: 15700 | Cyclic AMP produced; TSH only (fmol/cell well) [25]: 18600 | Mutated/wild type (%); TSH only [25]: 110% | Cyclic AMP produced; TSH only (fmol/cell well) [26]: 16900 | Cyclic AMP produced; TSH only (fmol/cell well) [27]: 7670 | Mutated/wild type (%); TSH only [27]: 86% | Cyclic AMP produced; TSH only (fmol/cell well) [28]: 8900 | Cyclic AMP produced; TSH only (fmol/cell well) [29]: 14200 | Cyclic AMP produced; TSH only (fmol/cell well) [30]: 9500 | Mutated/wild type (%); TSH only [30]: 67%
Substance: porcine TSH (pTSH) (from UniProt P01219 25-120; P01224 21-132) (ligand)
